The values that follow are results of earlier work, collected in patent US6854395B2, “Inflator for an air bag” (dated 2005).

The test system of this data set is rat.

Turning to `NNc1nc(NN)nc(NN)n1`, the “LD50 (oral-rat)” value is on record as 3161 mg/kg.
